Marks after values point to notes of the source that are not given here.
Key:
[1] = Incremental increase of free amino acids in blood after intraduodenal amino acids mixed with Na-AKG or chitosan-AKG; assay type: in vivo; conditions: pigs, intraduodenal infusion with amino-acids
[2] = remark: listed apart in the source
From the text: Female piglets (n=9) were purchased from the Texas Department of Criminal Justice, Huntsville, Tex.
Pigs (14 d of age) arrived at the Children's Nutrition Research Center and for a 7-day adjustment period were fed a liquid milk replacer diet (Litter Life, Merrick, Middleton, Wis.) at a rate of 50 g/(kg·d).
Briefly, under isoflurane anesthesia and aseptic conditions, the piglets were implanted with a polyethylene catheter (o.d., 1.27 mm, Becton Dickinson, Sparks, Md.) in the common portal vein, and silastic catheters (o.d., 1.78 mm) in an external jugular vein and a carotid artery.
An ultrasonic flow probe (8 to 10 mm i.d., Transonic, Ithaca, N.Y.) was placed around the portal vein.
A silicone catheter (o.d., 2.17 mm, Baxter Healthcare, McGaw Park, Ill.) was implanted into the lumen of the duodenum. The catheters were filled with sterile saline containing heparin (2.5×10^4 U/L), and exteriorized on either the left flank (portal and duodenal catheters, flow probe leads) or between the scapulae (jugular and carotid catheters).
For plasma amino acid analysis, a 0.2 mL aliquot of plasma was mixed with an equal volume of an aqueous solution of methionine sulfone (4 mmol/L) and centrifuged at 10,000×g for 120 min through a 10-kDa cutoff filter.
A 50 μL aliquot of the filtrate was dried and the amino acids were analyzed by reverse-phase HPLC of their phenylisothiocyanate derivatives (Pico Tag, Waters, Woburn, Mass.).
Plasma ammonia was determined using a spectrophotometric assay kit (171-C, Sigma-Aldrich, St. Louis, Mo.).
Plasma glucose was determined using a spectrophotometric assay kit (315-100; Sigma-Aldrich, St. Louis, Mo.).
Net portal balance of metabolites [μmol/(kg·h)] was calculated as follows:
(Conc.PORT−Conc.ART)×PBF (1)
when Conc. is the concentration in the blood (μmol/L), PORT and ART refer to portal and arterial blood and PBF is portal blood flow [L/(kg·h)].
Piglets were deprived of food for 15 h before initiation of the experiment. […]

[3] = AKG treatment, duodenal infusion
[4] = piglets, duodenal infusion 930 μmol/(kg·h) AKG (3.75% of diet dry matter), ± SEM

For `O=C(O)CCC(=O)C(=O)O` [AKG, alpha-ketoglutaric acid], the “Effect on whole body urea flux vs control” value [3] was “not affected”, the “Effect on whole body leucine flux vs control” value (AKG treatment, FIG. 1) was “not affected” and the “Whole-body leucine kinetics (flux, NOLD, Ra, Balance) vs control” value (FIG. 1, n=9, ANOVA) was “not different from control”. The “Whole body urea flux” value [4] was 377.8 ± 39 µmol/kg/h, the “Incremental increase of free amino acids in the blood (Δ), Artery” value ([1]; Time 1 hr) was −0.5^a mmol/L and the “Incremental increase of free amino acids in the blood (Δ), Hepatic vein” value ([1]; Time 1 hr) was 0.43^A mmol/L. The “Incremental increase of free amino acids in the blood (Δ), Artery” value ([1]; Time 1.5 hr) was 0.04^b mmol/L, the “Incremental increase of free amino acids in the blood (Δ), Hepatic vein” value ([1]; Time 1.5 hr) was 1.61^B mmol/L and the “Incremental increase of free amino acids in the blood (Δ), Artery” value ([1]; Time 2.5 hr) was −0.48^a mmol/L. The “Incremental increase of free amino acids in the blood (Δ), Hepatic vein” value ([1]; Time 2.5 hr) was 1.59^B mmol/L, the “Effect on portal blood flow vs control” value [2, 3] was “not affected” and the “Proportion of infused AKG appearing in the portal venous drainage, corrected for absorption of AKG from the control diet” value ([2]; piglets, duodenal infusion 930 μmol/(kg·h) AKG) was 8.12%. The Portal blood flow [2, 4] was 56 ± 4.5 mL/min/kg.
